Source: patent US5756504A, “Tocolytic oxytocin receptor antagonists” (priority 1996, dated 1998)

Amino acid sequences for entries named in this document (tags omitted).
UniProt P30560, whole entry: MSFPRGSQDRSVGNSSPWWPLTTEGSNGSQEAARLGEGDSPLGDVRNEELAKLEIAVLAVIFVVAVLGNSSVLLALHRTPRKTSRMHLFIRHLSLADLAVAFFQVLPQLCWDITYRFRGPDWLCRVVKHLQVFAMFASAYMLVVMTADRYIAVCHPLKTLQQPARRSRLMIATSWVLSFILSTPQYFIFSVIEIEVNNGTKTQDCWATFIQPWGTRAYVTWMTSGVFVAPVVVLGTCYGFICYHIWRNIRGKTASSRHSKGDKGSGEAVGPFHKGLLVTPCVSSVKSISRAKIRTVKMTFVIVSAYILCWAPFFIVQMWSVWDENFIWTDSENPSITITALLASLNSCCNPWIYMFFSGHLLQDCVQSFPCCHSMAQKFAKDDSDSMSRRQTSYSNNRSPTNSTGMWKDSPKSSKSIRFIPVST

Target: T1, rat liver (AVP-VI site) (Rattus norvegicus, UniProt P30560)
T1 construct: from tissue; host or cells: liver of male rats, crude membranes
Test: [3H]AVP equilibrium saturation binding, rat liver
Settings: read-out: Kd [^3 H]AVP rat liver; mean, n=3 saturation binding assays
Description: Ther., 256(1): 304-308 (1991)]. Uterine tissue was taken from nonpregnant adult Sprague-Dawley rats (Taconic Farms, Germantown, N.Y.) pretreated (18-24 h) with diethylstilbestrol propionate (DES; 300 μg/kg, i.p.). Uterine tissue (full thickness) was also taken with informed consent from nonlabor pregnant women undergoing cesarean section at 38 to 39 weeks gestation (Oregon Health Sciences Center, Portland, Oreg.). Liver and kidney medulla samples were taken from male rats and from human surgical and early postmortem donors (National Disease Research Interchange, Philadelphia Pa.; Analytical Biological Services, Wilmington, Del.).
Nonspecific binding was determined using 1 μM unlabeled OT or AVP in their respective assays. The binding reactions were initiated by the addition of tissue preparation and terminated by filtration using a Skatron cell harvester (model 7019, Skatron, Inc., Sterling, Va.). […] The final protein concentration for the various tissues in each assay ranged from 150 to 300 μg/ml [Lowry, P. H.; Rosebrough, N. J.; Farr, A. L.; Randall, R. J.; J. Biol. Chem., 193:265-275 (1951)].

**Q.** For [^3 H]arginine vasopressin [[^3 H]AVP], which Kd is on record?
**A.** The Kd was 210 pM.
